This passage reports IC50 results from ChEMBL document CHEMBL4308846, “How Selective Are Pharmacological Inhibitors of Cell-Cycle-Regulating Cyclin-Dependent Kinases?” (J Med Chem, 2018).

By UniProt entry, the sequences of proteins in these tests, tags left out.
UniProt P50750, whole entry: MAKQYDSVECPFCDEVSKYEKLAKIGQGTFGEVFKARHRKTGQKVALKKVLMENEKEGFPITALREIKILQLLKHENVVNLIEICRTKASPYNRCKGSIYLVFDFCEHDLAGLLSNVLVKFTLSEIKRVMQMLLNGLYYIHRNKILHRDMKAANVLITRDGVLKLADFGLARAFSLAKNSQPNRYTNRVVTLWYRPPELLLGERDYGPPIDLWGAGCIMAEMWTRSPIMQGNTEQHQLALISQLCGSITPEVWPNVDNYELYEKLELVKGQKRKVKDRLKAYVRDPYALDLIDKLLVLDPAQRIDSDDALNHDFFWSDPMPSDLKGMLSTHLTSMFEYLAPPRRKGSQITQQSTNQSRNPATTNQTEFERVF

The target in the experiment is CDK9/cyclin T1 (Homo sapiens, UniProt P50750). The experiment is described as follows: biochemical.

For `OCCCNc1cc(-c2ccnc(Nc3cccc(Cl)c3)n2)ccn1`, the IC50 (as a rule, the concentration at which inhibition is half-maximal) was determined as 13 nM.
